The numbers were not newly measured in US7410949B2, “Neuropeptide-2 receptor (Y-2R) agonists and uses thereof” (Hoffmann-La Roche Inc., priority 2005, dated 2008), which cites them from elsewhere.

This data set deals with rats. As to conditions: cited from earlier work.

Take `CC[C@H](C)[C@H](N)C(=O)N[C@@H](CCCCN)C(=O)N1CCC[C@H]1C(=O)N[C@@H](CCC(=O)O)C(=O)N[C@@H](C)C(=O)N1CCC[C@H]1C(=O)NCC(=O)N[C@@H](CCC(=O)O)C(=O)N[C@@H](CC(=O)O)C(=O)N[C@@H](C)C(=O)N[C@@H](CO)C(=O)N1CCC[C@H]1C(=O)N[C@@H](CCC(=O)O)C(=O)N[C@@H](CCC(=O)O)C(=O)N[C@@H](CC(C)C)C(=O)N[C@@H](CC(N)=O)C(=O)N[C@@H](CCCNC(=N)N)C(=O)N[C@@H](Cc1ccc(O)cc1)C(=O)N[C@@H](Cc1ccc(O)cc1)C(=O)N[C@@H](C)C(=O)N[C@@H](CO)C(=O)N[C@@H](CC(C)C)C(=O)N[C@@H](CCCNC(=N)N)C(=O)N[C@@H](Cc1c[nH]cn1)C(=O)N[C@@H](Cc1ccc(O)cc1)C(=O)N[C@@H](CC(C)C)C(=O)N[C@@H](CC(N)=O)C(=O)N[C@@H](CC(C)C)C(=O)N[C@H](C(=O)N[C@H](C(=O)N[C@@H](CCCNC(=N)N)C(=O)N[C@@H](CCC(N)=O)C(=O)N[C@@H](CCCNC(=N)N)C(=O)N[C@@H](Cc1ccc(O)cc1)C(N)=O)[C@@H](C)O)C(C)C` [Example 4]: the feeding entry (Intra-arcuate (IC) or Intra-peritoneal (IP) injection) is “reduced feeding”. Besides, the body weight gain entry (chronic treatment) is reported as “reduced body weight gain”.
